# Patent publication US8563553B2, “Compounds and compositions as protein kinase inhibitors” (Novartis AG, priority 2009, dated 2013)
# Sequences of proteins named here, by UniProt entry; tags and fusion partners are left off.
# UniProt P15056, whole entry V600E: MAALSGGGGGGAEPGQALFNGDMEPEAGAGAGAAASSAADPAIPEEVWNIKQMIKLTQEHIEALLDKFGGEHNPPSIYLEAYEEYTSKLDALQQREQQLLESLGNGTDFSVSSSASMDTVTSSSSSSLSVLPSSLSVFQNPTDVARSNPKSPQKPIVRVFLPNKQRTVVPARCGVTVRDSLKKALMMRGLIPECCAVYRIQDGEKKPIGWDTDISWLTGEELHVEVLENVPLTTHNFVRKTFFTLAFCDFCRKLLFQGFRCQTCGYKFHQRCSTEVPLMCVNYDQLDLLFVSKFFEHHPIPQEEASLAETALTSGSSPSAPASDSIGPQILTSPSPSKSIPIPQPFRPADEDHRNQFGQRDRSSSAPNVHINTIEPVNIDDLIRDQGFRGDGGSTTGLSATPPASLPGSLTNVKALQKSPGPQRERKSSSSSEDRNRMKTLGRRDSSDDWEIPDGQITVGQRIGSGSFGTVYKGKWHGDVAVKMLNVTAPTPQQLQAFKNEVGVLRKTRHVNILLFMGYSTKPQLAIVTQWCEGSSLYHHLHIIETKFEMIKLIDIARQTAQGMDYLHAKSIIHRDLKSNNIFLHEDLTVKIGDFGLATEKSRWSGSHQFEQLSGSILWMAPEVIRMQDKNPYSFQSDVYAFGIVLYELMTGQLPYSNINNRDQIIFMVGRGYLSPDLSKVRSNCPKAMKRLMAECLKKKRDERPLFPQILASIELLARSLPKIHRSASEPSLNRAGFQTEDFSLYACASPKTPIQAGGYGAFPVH
# Target: b-Raf(V600E) (Homo sapiens (Human), UniProt P15056, V600E)
# Assay: Raf/Mek Amplified Luminescence Proximity Homogeneous Assay (Alpha Screen)
# Assay type: biochemical
# Conditions: b-Raf(V600E) approximately 4 pM; biotinylated Mek, kinase dead approximately 10 nM; ATP 10 μM; pre-incubation 60 minutes; reaction 3 hours at room temperature; read-out: mut-B-RAF IC50
# Experimental: Raf/Mek Amplified Luminescence Proximity Homogeneous Assay
# Assay buffer: 50 mM Tris, pH 7.5, 15 mM MgCl2, 0.01% Bovine Serum Albumin (BSA), 1 mM dithiothreitol (DTT) Stop buffer: 60 mM ethylenediaminetetraacetic acid (EDTA), 0.01% Tween® 20 Bead buffer: 50 mM Tris, pH 7.5, 0.01% Tween® 20 […]
# biotinylated Mek, kinase dead
# Alpha Screen detection kit (available from PerkinElmer™, #6760617R)
# Anti phospho-MEK1/2 (available from Cell Signaling Technology, Inc. #9121) 384 well assay plates (White Greiner® plates, #781207) […]
# b-Raf(V600E) approximately 4 pM […]
# biotinylated Mek, Kinase dead approximately 10 nM
# Pre-incubation time with compounds 60 minutes at room temperature
# Reaction time 1 or 3 hours at room temperature […]
# The Raf kinase activity reaction was started by the addition of 10 μL per well of 2×ATP diluted in assay buffer. […] Phosphorylated product was measured using a rabbit anti-p-MEK (Cell Signaling, #9121) antibody and the Alpha Screen IgG (ProteinA) detection Kit (PerkinElmer #6760617R), by the addition of 30 μL to the well of a mixture of the antibody (1:2000 dilution) and detection beads (1:2000 dilution of both beads) in bead buffer (50 mM Tris, pH 7.5, 0.01% Tween20). […] A lid was placed on top of the plate and incubated for 1 hour at room temperature, then the luminescence was read on a PerkinElmer Envision instrument. […]
row,Compound,IC50 [pM]
1,"COC(=O)N[C@@H](C)CNc1nccc(-c2nc(C3CC3)[nH]c2-c2cc(Cl)cc(NS(=O)(=O)C3CC3)c2F)n1 [Example 1Y, (S)-Methyl 1-(4-(5-(5-chloro-3-(cyclopropanesulfonamido)-2-fluorophenyl)-2-cyclopropyl-1H-imidazol-4-yl)pyrimidin-2-ylamino)propan-2-ylcarbamate]",180
2,"CCCS(=O)(=O)Nc1c(F)ccc(-c2nc(C(C)(C)C)[nH]c2-c2ccnc(NC[C@H](C)NC(=O)OC)n2)c1F [Example 4I, (S)-Methyl 1-(4-(2-tert-butyl-4-(2,4-difluoro-3-(propylsulfonamido)phenyl)-1H-imidazol-5-yl)pyrimidin-2-ylamino)propan-2-ylcarbamate]",120
